In publication PMC3539823 (Journal of medicinal chemistry, 2012):

Tested on: P493 human lymphoma B cells
Experiment: P493 cell proliferation assay
Assay type: cell-based
Settings: P493-6, read-out: IC50 (growth of P493 cells)

For `Nc1nnc(CCSCCc2nnc(NC(=O)Cc3ccccc3)s2)s1` [Compound 6, N-(5-{2-[2-(5-Amino-[1,3,4]thiadiazol-2-yl)-ethylsulfanyl]-ethyl}-[1,3,4]thiadiazol-2-yl)-2-phenyl-acetamide], the IC50 was about 20 µM.
